Data: US12491170B2, “Stable treprostinil prodrugs” (United Therapeutics Corporation, priority 2020, dated 2025)
Like-named read-outs stand apart in the source and are kept apart here. Each block holds one compound with its values, some of them ahead of it.

How the values were obtained:
[1] = Method: Mixed-gender human cryopreserved hepatocytes, male Sprague-Dawley rat cryopreserved hepatocytes, and male Beagle dog cryopreserved hepatocytes were purchased from XenoTech. The hepatocytes were thawed and prepared according to the vendor's instructions, pooled into Krebs Henseleit buffer (KHB, pH 7.4), and kept on ice prior to the experiments. […] The final DMSO content in the incubation mixture was ≤0.1%. […] Aliquots of the test article were withdrawn (n=1) at 0, 15, 30, 60, and 120 minutes. […] Aliquots of 7-HC were withdrawn (n=1) at 0 and 15 minutes. The reaction was immediately terminated by adding two volumes of ice-cold acetonitrile (ACN) to the test article samples and three volumes of ACN containing internal standard to the positive control samples. The samples were then mixed and centrifuged to precipitate proteins. An aliquot of the supernatant was then diluted with water and analyzed by LC-MS/MS against calibration standards prepared in a matched matrix. […] All test article samples were analyzed for the dosed prodrugs as well as the drug, treprostinil. The test article concentration was compared to the concentration at time 0 to determine the percent of test article remaining at each time point. Half-lives and clearance values were calculated using GraphPad software, fitting to a single-phase exponential decay equation.
[2] = remark: listed apart in the source
Method: The pool of skin homogenate was prepared by combining equal volumes of three lots that were tested in the initial skin homogenate lot assessment experiments.
A stock solution of calcein-AM was first prepared at 5 mM in DMSO, followed by a serial dilution into methanol at a concentration of 100 μM. 495 μL of skin homogenate was thawed and warmed to 37° C. A 5 μL aliquot of the 100 μM calcein-AM solution was spiked into the skin homogenate, for a final calcein-AM dosing concentration of 1 μM. After briefly mixing, 150 μL aliquots were removed in triplicate and transferred to 96-well Falcon plates. The plates were placed onto a Thermomixer and maintained at 37° C., with gentle shaking for the duration of the experiment. At each time point (0, 15, 30, 60, and 120 minutes), the plate was removed from the Thermomixer and transferred to a FLUOstar® plate reader, and the formation of calcein (Sigma) was monitored by fluorescence (490/515 nm). Calibration standards of calcein were prepared in distilled water by serial dilutions of a calcein DMSO stock at final concentrations ranging from 1 μM to 1 nM. All samples and standards were read concurrently (Table 13).
For each of the test articles, 495 μL of skin homogenate was added to triplicate centrifuge tubes. […] The disappearance of each individual test article was monitored, as well as the formation of treprostinil (Table 14 and Table 15).

[3] = remark: listed apart in the source
Method: Mixed-gender human liver microsomes, male Sprague-Dawley rat liver microsomes, and male Beagle dog liver microsomes were purchased from XenoTech. The reaction mixture, minus NADPH, was prepared as described below. […] An aliquot of the reaction mixture (without cofactor) was equilibrated in a shaking water bath at 37° C. for 5 minutes. The reaction was initiated by the addition of cofactor, and the mixture was incubated in a shaking water bath at 37° C. Aliquots (200 μL) were withdrawn at 0, 10, 20, 30, and 60 minutes. Test article samples were immediately combined with 400 μL of ice-cold acetonitrile (ACN) to terminate the reaction. […] The samples were then mixed and centrifuged to precipitate proteins. Aliquots of the supernatant were removed, diluted 1:1 into distilled water containing internal standard, and analyzed by LC-MS/MS against calibration standards prepared in a matched matrix. All samples were analyzed for the dosed prodrugs as well as the drug, treprostinil. The test article concentration was compared to the concentration at time 0 to determine the percent of test article remaining at each time point. Half-lives and clearance were calculated using GraphPad software, fitting to a single-phase exponential decay equation.
• Liver Microsomes 0.5 mg/mL • NADPH (cofactor) 1 mM • Potassium Phosphate, pH 7.4 100 mM • Magnesium Chloride 5 mM • Test Article 1 μM

[4] = Plasma stability, human plasma; format: in vitro ADME; settings: 1 μM, 37° C.
Method: (§1) Studies were carried out in mixed-gender human plasma male Sprague-Dawley rat plasma, and male Beagle dog plasma. All plasma was obtained from Bioreclamation and collected on K2EDTA. Plasma was adjusted to pH 7.4 prior to initiating the experiments. DMSO stocks were first prepared for the test articles. […] The vials were kept in a benchtop Thermomixer® for the duration of the experiment. […] Samples were stored at 4° C. until the end of the experiment. After the final time point was sampled, the plate was mixed and then centrifuged at 3000 rpm for 10 minutes.

[5] = Plasma stability, rat plasma; format: in vitro ADME, Sprague-Dawley rat; settings: 1 μM, 37° C.
Method: as §1

[6] = Plasma stability, dog plasma; format: in vitro ADME, Beagle dog; settings: 1 μM, 37° C.
Method: as §1

[7] = Stability in simulated intestinal fluid; format: in vitro ADME; settings: SIF pH 6.8 with pancreatin, 1 μM, 37° C.
Method: Studies were carried out in simulated intestinal fluid (SIF). SIF was prepared by dissolving 6.8 g of KH2PO4 in 250 mL of water, mixing, and then adding 77 mL of 0.2 N NaOH and […] of water. […] DMSO stocks were first prepared for the test articles. […] The vials were kept in a benchtop Thermomixer® for the duration of the experiment. A separate tube was dosed for each time point in each matrix. […] Samples were mixed and then immediately stored at 4° C. until the end of the experiment. After the final time point was sampled, the plate was mixed and then centrifuged at 3000 rpm for 10 minutes.

Compound: CCCCCC(CCC1C(O)CC2Cc3c(cccc3OCC(=O)O)CC21)OC(=O)c1cccc(O)c1 (stereo not shown) [LX]
- Trep Concentration (μM) 120 min [1]: 0.0117 µM

Compound: CCCCCC(O)CCC1C(OC)CC2Cc3c(cccc3OCC(=O)O)CC21 (stereo not shown) [LIII]
- Trep Concentration 120 min [2]: 0.0171 µM
- Trep Concentration 30 min [3]: 0.0236 µM

Compound: CCCCCC(CCC1C(O)CC2Cc3c(cccc3OCC(=O)O)CC21)OC(=O)c1ccc(O)cc1 (stereo not shown) [LXVIII]
- Trep Concentration 0 min [3]: 0.0171 µM
- Trep Concentration (μM) 60 min [1]: 0.195 µM

Compound: CCCCCC(CCC1C(O)CC2Cc3c(cccc3OCC(=O)O)CC21)OC(=O)c1ccc(O)c(O)c1 (stereo not shown) [LXVI]
- Trep Concentration 20 min [3]: 0.0171 µM

Further lines, results first:

- Trep Concentration 10 min [3]: 0.0117 µM
Compound: CCCCC[C@@H](CC[C@@H]1[C@H]2Cc3cccc(OCC(=O)O)c3C[C@H]2C[C@H]1O)OC(=O)[C@@H](N)C(C)C [XXIX]

- Trep Concentration 30 min [2]: 0.112 µM
Compound: CCCCCC(CCC1C(O)CC2Cc3c(cccc3OCC(=O)O)CC21)OC(=O)C(C)N (stereo not shown) [XXXI]

- Trep Concentration 10 min [3]: 0.0171 µM
Compound: CCCCCC(CCC1C(O)CC2Cc3c(cccc3OCC(=O)O)CC21)OC(=O)CCN (stereo not shown) [XXXVII]

- Percent Remaining 30 min [4]: 106%
- Percent Remaining 30 min [5]: 107%
- Percent Remaining 30 min [6]: 102%
- Percent Remaining 30 min [7]: 107%
Compound: treprostinil diacetate [Prodrug LXXII]
